Compounds with a hit are over-represented: about 2.1% of the library has one in this group of screens.
Nrf2 block – inhibitors of Nrf2 signaling; A549 ARE-Fluc reporter, luciferase luminescence, 18-24 h; Potency, µM (highest dose often 46 µM), for inactives: at the top dose activity change, negative = inhibition, actives largely listed as inhibitors; 2.1% of 360,000 active; AID 504444; further: potency means the concentration at half of the fitted maximal effect; on the % scale 0 is the no-effect control and ±100 the full control effect; nearly all actives have a fitted effect of over 60% in size
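Reporter: ARE-Fluc in A549. Exposure: 18-24 h, 37 °C, 5% CO2, 5% FBS OPTI-MEM. Readouts: fluorescent cytotoxicity (CellTiter-Fluor), then luminescent Nrf2 signal after BugLite.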
A549 tox – kills or reduces viability of A549 cells in Nrf2 counter-screen; A549 ARE-Fluc cells, CellTiter-Fluor viability, 18-24 h; Potency, µM (titrated, usually from 46 µM), for inactives: top-dose activity change, negative = cytotoxicity, actives largely listed as inhibitors; 0.16% of 390,000 active; AID 504648; further: potency means the concentration at half of the fitted maximal effect; on the % scale 0 is the no-effect control and ±100 the full control effect
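A549 ARE-Fluc cells in 5% FBS OPTI-MEM, 5000 cells/well, rested 2 h then exposed to compounds in concentration-response for 18-24 h at 37 °C. Viability by CellTiter-Fluor fluorescence (Ex 405/Em 525) after 30 min; luciferase luminescence (BugLite, 15 min, RT) read afterwards.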
Nrf2 activator – activates Nrf2 signaling | Potency, µM (top dose mostly 46.1 µM), without a hit: at the highest dose activation, most hits filed as activators | 0.31% of 410,000 active | AREc32 ARE-luciferase reporter (MCF7-derived line), luminescence, 24 h; further: potency means the concentration at half of the fitted maximal effect; % of control where 0% means no effect; nearly all actives have a fitted effect of over 65% in size
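Quantitative high-throughput format: AREc32 reporter cells, 1000 per well, received compound by pin transfer and were incubated 24 hr at 37 deg C, 5% CO2, before Steady-Glo luminescence detection.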
Glioma ERSR ind – induces the endoplasmic reticulum stress response in human glioma cells; U87-MG GRP78 promoter luciferase reporter, 16 h; Potency, µM, inactives show at the top dose activation, hits mostly activators; 0.02% of 420,000 active; further: potency means the concentration at half of the fitted maximal effect; series mostly up to about 76 µM; % of control where 0% means no effect; nearly all actives have a fitted effect of over 35% in size
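Stably transfected U87-MG glioma cells carrying a GRP78-based luciferase sensor; 16 h compound incubation. Luminescence end-point read 10 min after Bright-Glo addition at room temperature.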
miR-21 FLuc – miR-21 reporter, rising signal | HeLa miR-21 FLuc reporter, luciferase, 48 h | Potency, µM (highest dose often 38.3 µM), for inactives: at the top dose reporter change, positive = more light | 340,000 tested, under 10 active | AID 2288; active = well fitted rising curve with a large enough effect; inconclusive = small, poorly fitted or top-dose-only effect; inactive = no such curve, though single readings can be large or run the other way;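 further: % of control where 0% means no effect; miR-21 action dims this reporter so a rising signal means less miR-21 action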
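Luminescence from a firefly luciferase reporter carrying a miR-21 binding site downstream, stably expressed under a CMV promoter in HeLa cells that make miR-21 endogenously, reports miRNA modulation after 48 h compound exposure up to approximately 40uM final.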
PTAP TSG101 blk – blocks PTAP/TSG101 interaction to inhibit HIV-1 budding | Potency, µM (top dose mostly 115 µM), for the others: at the highest dose activity change, negative = inhibition, hits mostly inhibitors | Fluorescence polarization, FITC-PTAP peptide / Tsg101 binding | 340,000 tested, under 10 active | Q99816; active means well fitted inhibition curve with a large enough effect in the main read-out, with a control signal flat, not every such curve was filed as active; inconclusive means small, poorly fitted or top-dose-only effect, or effect the other way, or a change in a side signal; inactive means no such curve, though single readings can be large or run the other way; further: potency means the concentration at half of the fitted maximal effect; % of control where 0% means no effect
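FP read-out: FITC-PTAP peptide, 50 nM final, binding Tsg101 binding domain, 10 uM final; 20 min, r.t.; 10 mM HEPES pH 7.5, 0.15 M NaCl, 0.01% Tween 20, 3 mM EDTA, 0.1 mM TCEP.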
Numbers without * were called inactive; ? = inconclusive; · = no result given; [ ] = another dose, or the depositor's remark. Unless noted, the call rests on the fitted dose curve; in most records, active means well fitted curve in the direction sought with a large enough effect; inconclusive means small, poorly fitted or top-dose-only effect, or another doubt; inactive means no such curve, though single readings can be large; an effect the other way counts as inactive or inconclusive.

SMILES	Nrf2 block	A549 tox	Nrf2 activator	Glioma ERSR ind	miR-21 FLuc	PTAP TSG101 blk
Cc1cccc2nc(-c3ccccn3)c(Nc3ccccc3)n12	10µM*	-26%	4%	-7%	?	·
Cc1ccn2c(Nc3ccc(F)cc3)c(-c3ccccn3)nc2c1	16µM*	?	1%	-3%	10%	·
Cc1cccc2nc(-c3ccccn3)c(Nc3ccc(F)cc3)n12	16µM*	?	0%	-6%	?	·
COc1ccccc1C1CN(CC(=O)NCC2OCCc3ccccc32)Cc2ccccc2O1 (configuration not stated)	·	·	·	-3%	·	·
S=C(NCc1ccccn1)NN=Cc1ccccn1	15µM*	?	-1%	-1%	·	-2%
COc1cc(CN2CCc3nnc(C(NS(C)(=O)=O)C(C)C)n3CC2)ccc1F (configuration not stated)	·	·	·	-5%	·	·
O=C(CN1C2CCCC1CC(NC(=O)C1CCCCC1)C2)Nc1ccccc1C(F)(F)F (configuration not stated)	23µM*	-8%	3%	-4%	0%	-2%
COc1cccc(C(=O)NC2CC3CCCC(C2)N3CC(=O)Nc2ccccc2C(F)(F)F)c1 (configuration not stated)	?	2%	2%	-6%	?	1%
Nc1cccc[n+]1C(c1ccnc2ccccc12)[n+]1ccccc1N	·	·	·	-3%	·	·
CSc1nsc(SC)c1NC(=O)Nc1ccccn1	·	-13%	10µM*	-2%	-16%	-11%
CSc1nsc(SC)c1NC(=O)OCCc1ccccn1	0%	-13%	0%	1%	-5%	-3%
C#CCSc1nnc(-c2cccc3ccccc23)o1	27%	-1%	11µM*	10%	·	-5%
CN(C)c1ccc(/C=C/N2C=CCc3c2ccc2ccccc32)cc1	·	·	·	-11%	·	·
COc1ccc(CN=C(N)N=C(N)N)cc1Cl	16µM*	-19%	0%	-2%	6%	-2%
CC(C)Oc1ccc(CN=C(N)N=C(N)N)cc1Cl	15µM*	-17%	0%	-9%	13%	0%
CCOC(=O)C1CCCN(C(=O)c2cnn(-c3ncc4c(n3)-c3ccccc3CC4)c2C)C1 (configuration not stated)	·	·	·	0%	·	·
O=C(Nc1ccccc1)Nc1nc(Nc2cc(F)cc(F)c2)nc(NC2CCCC2)n1	-23%	-5%	·	·	·	·
C(=C\c1ccnc2ccccc12)/c1ccc(N2CCN(c3ccc(/C=C/c4ccnc5ccccc45)cc3)CC2)cc1	·	·	·	-3%	·	·
CC1CN(CCC(=O)NC(c2cccnc2)C(F)(F)F)Cc2cc(Cl)ccc2O1 (configuration not stated)	·	·	·	-4%	·	·
COc1ccc(CCNC(=O)c2nc(SCc3ccccc3F)ncc2Cl)cc1OC	16µM*	-12%	0%	-4%	?	·

Some of the entries above, set out differently:
| SMILES | Nrf2 block | A549 tox | Nrf2 activator | Glioma ERSR ind | miR-21 FLuc | PTAP TSG101 blk |
| --- | --- | --- | --- | --- | --- | --- |
| CC1CN(CCC(=O)NC(c2cccnc2)C(F)(F)F)Cc2cc(Cl)ccc2O1 (configuration not stated) | · | · | · | -4% | · | · |
| CSc1nsc(SC)c1NC(=O)OCCc1ccccn1 | 0% | -13% | 0% | 1% | -5% | -3% |
| O=C(Nc1ccccc1)Nc1nc(Nc2cc(F)cc(F)c2)nc(NC2CCCC2)n1 | -23% | -5% | · | · | · | · |
| CN(C)c1ccc(/C=C/N2C=CCc3c2ccc2ccccc32)cc1 | · | · | · | -11% | · | · |
| CCOC(=O)C1CCCN(C(=O)c2cnn(-c3ncc4c(n3)-c3ccccc3CC4)c2C)C1 (configuration not stated) | · | · | · | 0% | · | · |
| C(=C\c1ccnc2ccccc12)/c1ccc(N2CCN(c3ccc(/C=C/c4ccnc5ccccc45)cc3)CC2)cc1 | · | · | · | -3% | · | · |

Remaining list, next part
SMILES	Nrf2 block	A549 tox	Nrf2 activator	Glioma ERSR ind	miR-21 FLuc	PTAP TSG101 blk
Cc1ccc(CNC(=O)c2nc(SCc3ccccc3F)ncc2Cl)cc1	2%	8%	1%	-1%	5%	·
Nc1nc(N)c(Cc2ccc(Cl)cc2Cl)c(N)n1	18µM*	-14%	2%	-6%	13%	-4%
Cc1ncc2c(c1CNC(=O)c1cncs1)CCN(C(=O)c1csc(-c3cccs3)n1)C2	·	·	·	-2%	·	·
CC(C)=CCC/C(C)=C/CNC(=O)C[C@H]1C[C@H](C(=O)N(C(C)C)C(C)C)[C@@]2(C)c3[nH]c4cc(-c5ccco5)ccc4c3CCN2C1=O	23µM*	?	15%	0%	·	-13%
C[C@]12c3[nH]c4cc(-c5ccco5)ccc4c3CCN1C(=O)[C@@H](CC(=O)NCC13CC4CC(CC(C4)C1)C3)C[C@@H]2C(=O)N1CCOCC1	23µM*	?	-1%	-1%	·	-10%
CC(C)=CCC/C(C)=C/CNC(=O)C[C@H]1C[C@H](C(=O)N(C(C)C)C(C)C)[C@@]2(C)c3[nH]c4cc(CCC(=O)N(C)C)ccc4c3CCN2C1=O	21µM*	-24%	-1%	13%	·	-8%
CC(C)N(C(=O)[C@H]1C[C@H](CC(=O)NCc2ccco2)C(=O)N2CCc3c([nH]c4cc(-c5ccco5)ccc34)[C@]12C)C(C)C	15µM*	-19%	4%	-1%	·	-9%
CC(C)N(C(=O)[C@H]1C[C@H](CC(=O)NCCCN(C)C)C(=O)N2CCc3c([nH]c4cc(CCC(=O)N(C)C)ccc34)[C@]12C)C(C)C	1%	-3%	-1%	-5%	·	3%
CCN(CC)C(=O)[C@H]1C[C@H](CC(=O)NC/C=C(\C)CCC=C(C)C)C(=O)N2CCc3c([nH]c4cc(-c5ccco5)ccc34)[C@]12C	?	?	-2%	-2%	·	-3%
O=C(Nc1cccc(Cl)c1)OCC#CCCl	·	·	·	-1%	·	·
Cc1c(C(=O)N(C)Cc2cscn2)sc2ncnc(NC[C@H]3CCc4ccccc4O3)c12	·	·	·	1%	·	·
O=C(C[n+]1ccccc1Br)c1ccc(-c2ccccc2)cc1	·	·	·	7%	·	·
CCc1ccc2ncc(S(=O)(=O)c3ccc(C)c(C)c3)c(N3CCCC3)c2c1	23µM*	-11%	6%	-5%	-1%	1%
O=[N+]([O-])c1ccc(N2CCN(Cc3cccc([N+](=O)[O-])c3)CC2)cc1	21µM*	?	1%[9.22 µM]	-4%	26%	1%
COc1cccc(CN2CCN(Cc3cc(OC)c(OC)cc3[N+](=O)[O-])CC2)c1	5%	19%	0%	-2%	-7%	-6%
COc1cc(CN2CCN(Cc3ccc([N+](=O)[O-])cc3)CC2)c([N+](=O)[O-])cc1OC	21µM*	-4%	3%	-4%	16%	1%
C=C1C=C(C(F)F)n2ncc(C(=O)N3CCc4ccccc4C3)c2N1	·	·	·	-4%	·	·
Cc1ccc(C)c(NC(=S)NNC(=O)c2csc3c2CCCC3)c1	·	0%	0%	4%	-2%	-8%
Cc1ccc(C)c(NC(=S)NNC(=O)c2csc3c2CCC(C)C3)c1 (configuration not stated)	21µM*	?	-1%	-3%	-16%	-1%
CCN1CCN(C(=O)N[C@H](C(=O)N[C@@H]2C(=O)N3[C@@H](C(=O)O)C(C)(C)S[C@@H]23)c2ccccc2)C(=O)C1=O	·	·	·	-2%	·	·
Cc1ccc(NS(=O)(=O)c2cc3c4c(cccc4c2)C(=O)NC3=O)cc1C	15µM*	-9%	2%	-3%	16%	-12%
CCCOC(=O)/C(=C\C=C\c1ccco1)NC(=O)c1ccccc1	?	0%	13µM*	9%	-4%	-7%
COC(=O)/C(=C/c1ccco1)NC(=O)c1ccccc1	3%	11%	?	-4%	-9%	-6%
